Test results taken from PubChem BioAssay (EPA / NIEHS).
Only a part is listed here, and it is no random draw. Records with an inconclusive call do not appear. Calls of active or inactive are those of the source. Rule for the calls: active = hit-call score of the fitted dose curve at least 0.9, where 1 is the maximum; inconclusive = response in the unintended direction; inactive = score below 0.9.

Sequences of proteins named here, by UniProt entry; tags and fusion partners are left off.
UniProt P42575, whole entry: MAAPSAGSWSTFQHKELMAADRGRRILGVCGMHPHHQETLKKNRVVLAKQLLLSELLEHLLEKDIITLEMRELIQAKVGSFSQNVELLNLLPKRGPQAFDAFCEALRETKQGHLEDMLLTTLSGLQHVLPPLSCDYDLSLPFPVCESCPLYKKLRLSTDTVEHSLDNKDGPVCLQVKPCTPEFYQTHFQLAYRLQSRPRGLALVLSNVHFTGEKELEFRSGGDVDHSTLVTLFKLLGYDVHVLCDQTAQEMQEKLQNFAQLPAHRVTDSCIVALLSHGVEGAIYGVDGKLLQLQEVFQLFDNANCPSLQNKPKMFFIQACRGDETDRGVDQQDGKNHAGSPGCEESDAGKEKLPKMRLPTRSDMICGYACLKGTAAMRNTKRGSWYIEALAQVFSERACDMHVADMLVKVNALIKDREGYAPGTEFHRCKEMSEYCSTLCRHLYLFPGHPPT
UniProt P56817, whole entry: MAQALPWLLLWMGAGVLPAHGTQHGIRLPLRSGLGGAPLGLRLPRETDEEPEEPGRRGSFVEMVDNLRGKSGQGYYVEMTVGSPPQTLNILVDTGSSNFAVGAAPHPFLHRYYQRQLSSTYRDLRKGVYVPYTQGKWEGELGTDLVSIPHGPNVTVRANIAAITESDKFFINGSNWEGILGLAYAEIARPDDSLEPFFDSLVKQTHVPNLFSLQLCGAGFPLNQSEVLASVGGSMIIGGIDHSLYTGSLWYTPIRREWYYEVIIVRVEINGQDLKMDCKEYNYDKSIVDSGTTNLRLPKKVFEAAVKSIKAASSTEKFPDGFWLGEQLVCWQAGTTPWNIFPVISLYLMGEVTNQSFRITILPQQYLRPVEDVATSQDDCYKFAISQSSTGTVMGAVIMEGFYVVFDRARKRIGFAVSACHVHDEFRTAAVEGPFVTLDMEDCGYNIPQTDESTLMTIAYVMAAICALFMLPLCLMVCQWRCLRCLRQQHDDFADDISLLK
UniProt P06276, whole entry: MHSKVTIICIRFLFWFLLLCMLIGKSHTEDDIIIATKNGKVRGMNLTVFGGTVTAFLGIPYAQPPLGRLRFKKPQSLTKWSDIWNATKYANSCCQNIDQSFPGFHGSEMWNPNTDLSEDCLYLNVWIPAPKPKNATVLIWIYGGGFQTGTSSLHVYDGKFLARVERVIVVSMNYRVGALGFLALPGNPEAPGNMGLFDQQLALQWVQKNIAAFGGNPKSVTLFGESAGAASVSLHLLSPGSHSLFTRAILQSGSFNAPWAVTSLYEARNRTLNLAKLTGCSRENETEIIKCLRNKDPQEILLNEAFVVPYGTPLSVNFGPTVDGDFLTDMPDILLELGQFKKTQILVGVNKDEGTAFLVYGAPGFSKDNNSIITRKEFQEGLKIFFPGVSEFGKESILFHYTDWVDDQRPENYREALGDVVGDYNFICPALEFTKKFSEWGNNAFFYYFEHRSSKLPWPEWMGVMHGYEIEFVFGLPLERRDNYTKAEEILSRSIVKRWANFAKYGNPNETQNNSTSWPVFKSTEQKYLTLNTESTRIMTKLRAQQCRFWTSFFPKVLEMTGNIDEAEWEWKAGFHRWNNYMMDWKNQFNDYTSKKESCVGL
UniProt P31749, whole entry: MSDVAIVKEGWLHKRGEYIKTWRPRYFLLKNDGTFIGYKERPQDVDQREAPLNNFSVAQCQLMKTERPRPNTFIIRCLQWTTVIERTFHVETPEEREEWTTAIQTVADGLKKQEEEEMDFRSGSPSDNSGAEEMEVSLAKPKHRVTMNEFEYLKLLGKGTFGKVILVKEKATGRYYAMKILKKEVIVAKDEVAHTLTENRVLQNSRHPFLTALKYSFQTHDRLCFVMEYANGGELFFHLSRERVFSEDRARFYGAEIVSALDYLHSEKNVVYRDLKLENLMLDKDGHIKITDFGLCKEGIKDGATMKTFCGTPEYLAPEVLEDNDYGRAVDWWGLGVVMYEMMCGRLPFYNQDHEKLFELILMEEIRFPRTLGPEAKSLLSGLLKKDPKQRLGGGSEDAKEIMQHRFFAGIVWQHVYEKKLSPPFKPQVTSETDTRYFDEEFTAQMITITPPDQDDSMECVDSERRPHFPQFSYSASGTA
UniProt P31751, whole entry: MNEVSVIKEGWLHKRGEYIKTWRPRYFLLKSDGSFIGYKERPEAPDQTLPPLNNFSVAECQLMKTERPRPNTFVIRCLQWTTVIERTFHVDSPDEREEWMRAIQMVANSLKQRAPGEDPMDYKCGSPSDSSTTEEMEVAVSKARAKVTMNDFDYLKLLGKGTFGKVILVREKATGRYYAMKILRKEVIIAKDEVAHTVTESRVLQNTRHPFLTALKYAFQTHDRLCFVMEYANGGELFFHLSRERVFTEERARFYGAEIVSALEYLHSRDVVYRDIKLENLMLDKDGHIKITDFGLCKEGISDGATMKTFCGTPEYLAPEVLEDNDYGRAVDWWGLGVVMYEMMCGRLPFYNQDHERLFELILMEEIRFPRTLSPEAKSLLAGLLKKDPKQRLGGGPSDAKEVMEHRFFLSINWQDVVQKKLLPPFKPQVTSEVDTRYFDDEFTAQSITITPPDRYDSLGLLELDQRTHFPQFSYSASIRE
UniProt O14965, whole entry: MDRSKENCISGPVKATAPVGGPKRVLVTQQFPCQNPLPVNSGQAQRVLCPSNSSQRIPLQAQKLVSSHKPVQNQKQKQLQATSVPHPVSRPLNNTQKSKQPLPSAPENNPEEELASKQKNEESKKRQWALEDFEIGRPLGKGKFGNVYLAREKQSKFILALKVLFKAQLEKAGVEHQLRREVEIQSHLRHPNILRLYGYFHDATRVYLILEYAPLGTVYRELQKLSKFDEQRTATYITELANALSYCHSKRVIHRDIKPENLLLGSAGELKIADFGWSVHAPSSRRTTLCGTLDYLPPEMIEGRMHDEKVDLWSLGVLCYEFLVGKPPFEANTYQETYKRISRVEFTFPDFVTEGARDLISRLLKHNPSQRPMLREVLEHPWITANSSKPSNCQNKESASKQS
UniProt P07333, whole entry: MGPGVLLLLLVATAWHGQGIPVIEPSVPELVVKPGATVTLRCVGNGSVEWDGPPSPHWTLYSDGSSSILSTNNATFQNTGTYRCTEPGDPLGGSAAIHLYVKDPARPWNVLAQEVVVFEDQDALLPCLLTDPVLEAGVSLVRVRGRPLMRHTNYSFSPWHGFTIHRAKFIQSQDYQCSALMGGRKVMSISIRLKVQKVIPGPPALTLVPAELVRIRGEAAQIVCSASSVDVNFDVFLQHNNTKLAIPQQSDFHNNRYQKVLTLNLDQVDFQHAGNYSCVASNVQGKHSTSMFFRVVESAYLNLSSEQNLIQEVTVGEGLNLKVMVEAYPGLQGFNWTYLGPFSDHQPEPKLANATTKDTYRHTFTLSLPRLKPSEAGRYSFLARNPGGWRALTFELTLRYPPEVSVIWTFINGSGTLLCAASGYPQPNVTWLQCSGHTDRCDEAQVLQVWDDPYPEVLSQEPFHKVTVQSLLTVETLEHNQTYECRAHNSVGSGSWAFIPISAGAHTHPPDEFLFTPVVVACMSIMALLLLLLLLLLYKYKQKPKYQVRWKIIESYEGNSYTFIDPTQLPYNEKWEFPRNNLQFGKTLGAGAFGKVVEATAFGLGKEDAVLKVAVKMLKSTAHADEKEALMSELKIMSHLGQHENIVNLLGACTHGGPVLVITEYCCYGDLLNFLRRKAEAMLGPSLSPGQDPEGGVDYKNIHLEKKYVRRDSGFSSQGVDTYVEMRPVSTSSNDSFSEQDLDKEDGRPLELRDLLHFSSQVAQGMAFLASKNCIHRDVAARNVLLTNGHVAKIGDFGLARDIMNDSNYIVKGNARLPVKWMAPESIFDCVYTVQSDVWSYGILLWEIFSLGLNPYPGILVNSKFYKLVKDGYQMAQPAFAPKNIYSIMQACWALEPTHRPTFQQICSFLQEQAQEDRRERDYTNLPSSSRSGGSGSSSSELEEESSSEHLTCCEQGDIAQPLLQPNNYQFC
UniProt P29317, whole entry: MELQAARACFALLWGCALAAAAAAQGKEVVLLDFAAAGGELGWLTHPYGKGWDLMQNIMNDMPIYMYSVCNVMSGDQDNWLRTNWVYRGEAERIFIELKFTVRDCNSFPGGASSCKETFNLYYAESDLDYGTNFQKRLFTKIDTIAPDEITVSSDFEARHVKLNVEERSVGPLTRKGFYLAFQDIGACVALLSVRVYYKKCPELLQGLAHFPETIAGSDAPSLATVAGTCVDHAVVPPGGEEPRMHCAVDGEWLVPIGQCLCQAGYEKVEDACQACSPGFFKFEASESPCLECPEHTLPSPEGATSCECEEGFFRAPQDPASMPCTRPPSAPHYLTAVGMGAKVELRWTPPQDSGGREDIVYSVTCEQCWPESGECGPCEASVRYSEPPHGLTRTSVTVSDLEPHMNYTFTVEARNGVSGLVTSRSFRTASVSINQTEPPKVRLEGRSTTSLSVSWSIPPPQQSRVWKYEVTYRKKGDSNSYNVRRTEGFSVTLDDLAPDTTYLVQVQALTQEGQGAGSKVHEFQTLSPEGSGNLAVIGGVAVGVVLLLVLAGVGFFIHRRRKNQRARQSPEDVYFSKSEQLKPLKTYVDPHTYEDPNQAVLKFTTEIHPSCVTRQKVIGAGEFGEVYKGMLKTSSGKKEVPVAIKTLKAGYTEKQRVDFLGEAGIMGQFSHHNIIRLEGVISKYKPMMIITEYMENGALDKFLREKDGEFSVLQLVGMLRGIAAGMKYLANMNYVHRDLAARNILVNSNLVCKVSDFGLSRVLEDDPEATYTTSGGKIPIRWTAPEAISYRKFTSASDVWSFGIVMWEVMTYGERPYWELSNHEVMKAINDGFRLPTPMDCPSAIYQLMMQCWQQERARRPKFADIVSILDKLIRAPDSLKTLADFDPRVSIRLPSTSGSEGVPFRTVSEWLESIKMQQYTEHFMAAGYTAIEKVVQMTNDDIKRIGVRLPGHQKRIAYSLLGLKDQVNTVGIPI

Columns and labels:
[1] = biological target: human Caspase 2 (CASP2), CASP2 (gene 835) (UniProt P42575); assay: NVS_ENZ_hCASP2: NovaScreen (NVS) Enzymatic Assay for human Caspase 2 (CASP2) (AID 2283135)
How it was run: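 E. coli-expressed enzyme in a cell-free protease assay, fluorescence read 1 h after dosing. Compounds at 25 uM in duplicate, with concentration-response up to 50 uM for hits; loss of signal against DMSO baseline.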

[2] = biological target: human Beta-secretase (BACE), BACE1 (gene 23621) (UniProt P56817); assay: NVS_ENZ_hBACE: NovaScreen (NVS) Enzymatic Assay for human Beta-secretase (BACE) (AID 2283140);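 note: hits are inhibitors that reduce fluorescent substrate signal versus DMSO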
Experimental: NVS_ENZ_hBACE is a biochemical, single-readout assay that uses extracted gene-proteins from SF9 in a cell-free assay. Measurements were taken 1 hour after chemical dosing in a 96-well plate.NVS_ENZ_hBACE is one of one assay component(s) measured or calculated from the NVS_ENZ_hBACE assay. It is designed to make measurements of enzyme activity, a form of enzyme reporter, as detected with fluorescence intensity signals by Fluorescence technology.Data from the assay component NVS_ENZ_hBACE was analyzed into 1 assay endpoint. This assay endpoint, NVS_ENZ_hBACE, was analyzed in the positive analysis fitting direction relative to DMSO as the negative control and baseline of activity. […] Furthermore, this assay endpoint can be referred to as a primary readout, because this assay has produced multiple assay endpoints where this one serves a enzymatic activity function. […]
Binding assays used specific radioligands (tritiated, iodinated) with non-radioactive competitive displacement ligands in agonist or antagonist protocols (as indicated) and various reference compounds and inhibitors to titrate specific binding to receptors and transporters. Most enzyme assays (CYPs, kinases, phosphatases, proteases, HDACs) used recombinant protein and specific substrates (fluorescence mostly, some colorimetric and radioactive) and inhibitors, followed by a biochemical separation of substrate and product. […]

[3] = biological target: human Fibroblast Growth Factor Receptor 1 (FGFR1), FGFR1 (gene 2260) (UniProt P11362); assay: NVS_ENZ_hFGFR1: NovaScreen (NVS) Enzymatic Assay for human Fibroblast Growth Factor Receptor 1 (FGFR1) (AID 2283159)
Experimental: (§1) NVS_ENZ_hFGFR1 is a biochemical, single-readout assay that uses extracted gene-proteins in a cell-free assay. Measurements were taken 1 hour after chemical dosing in a 384-well plate.NVS_ENZ_hFGFR1 is one of one assay component(s) measured or calculated from the NVS_ENZ_hFGFR1 assay. It is designed to make measurements of enzyme activity, a form of enzyme reporter, as detected with fluorescence intensity signals by Fluorescence and electrophoretic mobility shift technology.Data from the assay component NVS_ENZ_hFGFR1 was analyzed into 1 assay endpoint. This assay endpoint, NVS_ENZ_hFGFR1, was analyzed in the positive analysis fitting direction relative to DMSO as the negative control and baseline of activity. Using a type of enzyme reporter, loss-of-signal activity can be used to understand changes in the enzymatic activity as they relate to the gene FGFR1. Furthermore, this assay endpoint can be referred to as a primary readout, because this assay has produced multiple assay endpoints where this one serves a enzymatic activity function. To generalize the intended target to other relatable targets, this assay endpoint is annotated to the kinase intended target family, where the subfamily is receptor tyrosine kinase. […]

[4] = biological target: human Esterase Plasma (ES), BCHE (gene 590) (UniProt P06276); assay: NVS_ENZ_hES: NovaScreen (NVS) Enzymatic Assay for human Esterase Plasma (ES) (AID 2283157)
How it was run: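 Chemicals were added to plasma-extracted human enzyme in a cell-free format, and activity was read colorimetrically after 0.25 hour. Activity loss was referenced to DMSO; concentration-response top dose was 50 uM.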

[5] = biological target: human AKT serine/threonine Kinase 1 (AKT1), AKT1 (gene 207) (UniProt P31749); assay: NVS_ENZ_hAKT1: NovaScreen (NVS) Enzymatic Assay for human AKT serine/threonine Kinase 1 (AKT1) (AID 2283138)
Experimental: as §1, with “NVS_ENZ_hAKT1” for “NVS_ENZ_hFGFR1”, “plate.NVS_ENZ_hAKT1” for “plate.NVS_ENZ_hFGFR1”, “NVS_ENZ_hAKT1,” for “NVS_ENZ_hFGFR1,”, “AKT1.” for “FGFR1.”, “serine/threonine” for “receptor tyrosine”

[6] = biological target: human AKT serine/threonine Kinase 2 (AKT2), AKT2 (gene 208) (UniProt P31751); assay: NVS_ENZ_hAKT2: NovaScreen (NVS) Enzymatic Assay for human AKT serine/threonine Kinase 2 (AKT2) (AID 2283141)
How it was run: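 Cell-free fluorescence/electrophoretic mobility shift readout of recombinant human AKT2 activity, 1 h after chemical dosing. Duplicate primary screen at 25 uM, then singleton concentration-response up to 50 uM; loss of signal versus DMSO baseline.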

[7] = biological target: human Aurora Kinase A - serine/threonine-protein Kinase 6 (AurA), AURKA (gene 6790) (UniProt O14965); assay: NVS_ENZ_hAurA: NovaScreen (NVS) Enzymatic Assay for human Aurora Kinase A - serine/threonine-protein Kinase 6 (AurA) (AID 2283142)
Experimental: as §1, with “NVS_ENZ_hAurA” for “NVS_ENZ_hFGFR1”, “plate.NVS_ENZ_hAurA” for “plate.NVS_ENZ_hFGFR1”, “NVS_ENZ_hAurA,” for “NVS_ENZ_hFGFR1,”, “AURKA.” for “FGFR1.”, “serine/threonine” for “receptor tyrosine”

[8] = biological target: human Colony Stimulating Factor 1 Receptor (CSF1R), CSF1R (gene 1436) (UniProt P07333); assay: NVS_ENZ_hCSF1R: NovaScreen (NVS) Enzymatic Assay for human Colony Stimulating Factor 1 Receptor (CSF1R) (AID 2283150)
Experimental: as §1, with “NVS_ENZ_hCSF1R” for “NVS_ENZ_hFGFR1”, “plate.NVS_ENZ_hCSF1R” for “plate.NVS_ENZ_hFGFR1”, “NVS_ENZ_hCSF1R,” for “NVS_ENZ_hFGFR1,”, “CSF1R.” for “FGFR1.”

[9] = biological target: human Epidermal Growth Factor Receptor (EGFR), EGFR (gene 1956) (UniProt P00533); assay: NVS_ENZ_hEGFR: NovaScreen (NVS) Enzymatic Assay for human Epidermal Growth Factor Receptor (EGFR) (AID 2283151)
How it was run: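 Cell-free kinase assay, fluorescence plus electrophoretic mobility shift separating substrate and product, read 1 hour after dosing; loss of signal vs DMSO. Duplicate screen at 25 uM, then concentration-response to 50 uM.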

[10] = biological target: human Ephrin type-A Receptor 2 (EphA2), EPHA2 (gene 1969) (UniProt P29317); assay: NVS_ENZ_hEphA2: NovaScreen (NVS) Enzymatic Assay for human Ephrin type-A Receptor 2 (EphA2) (AID 2283155)
Experimental: as §1, with “NVS_ENZ_hEphA2” for “NVS_ENZ_hFGFR1”, “plate.NVS_ENZ_hEphA2” for “plate.NVS_ENZ_hFGFR1”, “NVS_ENZ_hEphA2,” for “NVS_ENZ_hFGFR1,”, “EPHA2.” for “FGFR1.”

O=[N+]([O-])c1cccc([N+](=O)[O-])c1
outcome [1]: inactive
outcome [2]: inactive
outcome [3]: inactive

Cc1cccc([N+](=O)[O-])c1[N+](=O)[O-]
outcome [1]: inactive
outcome [4]: inactive
outcome [3]: inactive

Cc1ccc([N+](=O)[O-])cc1[N+](=O)[O-]
outcome [5]: inactive
outcome [6]: inactive
outcome [7]: inactive
outcome [8]: inactive
outcome [9]: inactive

CC(C)OP(C)(=O)OC(C)C
outcome [10]: inactive

Cc1c([N+](=O)[O-])cccc1[N+](=O)[O-]
outcome [4]: inactive
